The values below are quoted from earlier work in patent publication US8496960B2, “Terazosin transdermal device and methods” (Purdue Pharma L.P., priority 2001, dated 2013).

For the series the following is noted: following oral administration.

As to `COc1cc2nc(N3CCN(C(=O)C4CCCO4)CC3)nc(N)c2cc1OC` (stereo not shown) [terazosin], the absorption entry was “almost completely absorbed”.
